Measured values: patent publication US7888061B2, “Method of stabilising or reactivating a creatinine sensor with a divalent manganese ion” (Radiometer Medical ApS, priority 2005, dated 2011)
Where two headings read alike, the source gives them in different places.

Chains of the proteins cited; added tags and fusions are not shown. Lines headed by an entry give the natural chain unless they say otherwise; changes in a name come on top.
UniProt P83772: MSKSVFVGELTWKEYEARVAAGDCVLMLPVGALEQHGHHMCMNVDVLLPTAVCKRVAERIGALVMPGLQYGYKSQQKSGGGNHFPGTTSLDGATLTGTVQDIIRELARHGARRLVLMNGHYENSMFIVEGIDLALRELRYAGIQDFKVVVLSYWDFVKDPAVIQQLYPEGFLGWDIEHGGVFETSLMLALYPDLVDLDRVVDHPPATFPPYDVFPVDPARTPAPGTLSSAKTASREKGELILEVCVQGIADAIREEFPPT

Target: creatininase (Pseudomonas putida, UniProt P83772)
Experimental: The following examples are intended to illustrate the invention without limiting the invention. In all of the examples, creatininase from Pseudomonas putida was used, obtained from Roche Diagnostics, Mannheim, Germany.
The stability of the creatinine sensor was tested by observing the sensor responses to calibration solutions containing each of the substrates creatinine and creatine.
The calibration solutions were prepared by dissolving about 200 μM creatinine in the Radiometer Calibration Solution 1 S1720 and about 200 μM creatine in the Radiometer Calibration Solution 2 S1730. These solutions were repeatedly introduced into the apparatus one after the other and sensor responses were obtained.
It is convenient to depict the relation between the creatinine sensor response to creatinine relative to the creatinine sensor response to creatine by the following ratio: R=response to creatinine/response to creatine.
If R is constant, the creatininase activity is stable. A declining value for R indicates an overall loss of creatininase activity.
The same experiment as described above was conducted with five creatinine sensors having a significant initial excess of creatininase. In FIG. 4, R is depicted for this experiment.

manganese(II) acetate
R = response to creatinine/response to creatine (relative sensor response) (2 μM in Rinse Solution for 5½ days after 2¾ days without, two sensors with nearly no initial excess of creatininase, FIG. 3): stabilized | R = response to creatinine/response to creatine (relative sensor response) (10 μM in Rinse Solutions after 18 days without (R had decreased to 0.9), five sensors with significant initial excess of creatininase, FIG. 4): 1.3
